The source of these data is PubChem BioAssay AID2029 (NMMLSC, 2009).

Only a part is listed here, and it is no random draw. Some structures show a salt or complex split into parts, the way the source records it. The source made the active and inactive calls.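 How the source made its calls: active means GFP response relative to DMSO above a set limit, near the screen mean plus 3 SD (cut at about 150% in these data); inconclusive means Fewer than 70 cells measured for a yeast strain; inactive means the rest.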

The nature of this test: modulators of CIT2-GFP expression in yeast, primary screen, S. cerevisiae, GFP fusion, multiplex flow cytometry, MLPCN library (AID 2029).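 Further: ratio of well median GFP fluorescence to mean of DMSO wells on the plate.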 As to conditions: S. cerevisiae CIT2-GFP strain, 3 h, at 10 µM, hits give high values, 100 means same as DMSO wells.
`CCN(CC)CCCOC(=O)C(O)(c1ccccc1)c1ccccc1`: the GFP response vs DMSO was inactive: 105%.
`O=[N+]([O-])c1cc([N+](=O)[O-])c(Nc2cccnc2)c([N+](=O)[O-])c1`: the GFP response vs DMSO is inactive: 78.2%.
As to `CC(C)(C)c1ccc(OP(C)(=O)Nc2ccc(SC(F)(F)F)cc2)cc1` (configuration not stated), the GFP response vs DMSO was inactive: 92.6%.
The figure for `Cc1cccc(C)c1OP(C)(N)=O` (configuration not stated) is inactive: 94.5%; for `O=[N+]([O-])c1ccc2c(c1)C=Nc1ccccc1O2` it is inactive: 97.4%; for `CCOC(=O)c1ccc(NP(C)(=O)Oc2ccccc2)cc1` (configuration not stated) it is inactive: 105%.
In the case of `COc1ccccc1OP(C)(=O)Nc1ccc(C)cc1` (configuration not stated), the GFP response vs DMSO was inactive: 89%.
The result for `Cc1ccc(NP(C)(=O)Oc2ccccc2)c(C)c1` (configuration not stated) reads inactive: 92.7%.
Take `COc1ccccc1OP(C)(=O)Nc1cc(Cl)ccc1C` (configuration not stated): the GFP response vs DMSO is inactive: 93.3%.
The figure for `COc1ccc(OP(C)(=O)Nc2cccc(F)c2)cc1` (configuration not stated) is inactive: 102%; for `Cc1cc(C)cc(OP(C)(N)=O)c1` (configuration not stated) it is inactive: 96%; for `CP(=S)(Nn1cnnc1)Oc1ccccc1` (configuration not stated) it is inactive: 94.1%.
The result for `COc1ccccc1OP(C)(=O)Nc1ccccc1` (configuration not stated) reads inactive: 98.3%; that for `CP(=O)(Nc1ccccc1Br)Oc1ccccc1` (configuration not stated), inactive: 93.6%.
As for `Cc1cccc(C)c1OP(C)(=O)Nc1ccc(SC(F)(F)F)cc1` (configuration not stated), the GFP response vs DMSO was inactive: 93.9%.
`CP(=O)(Nc1ccc(SC(F)(F)F)cc1)Oc1ccc(Cl)cc1` (configuration not stated): the GFP response vs DMSO was inactive: 96.5%.
As for `CP(=O)(Oc1ccccc1)OC(c1ccccc1)C(F)(F)F` (configuration not stated), the GFP response vs DMSO is inactive: 99%.
The result for `CCc1ccc(OP(C)(=O)N2CCN(c3ccc([N+](=O)[O-])cc3)CC2)cc1` (configuration not stated) reads inactive: 87.7%.
Consider `CP(=O)(NC(=O)Nc1ccccc1)Oc1ccccc1` (configuration not stated), for which the GFP response vs DMSO is inactive: 94.7%.
The result for `Cc1cc(C)cc(OP(C)(=O)Nc2ccc(SC(F)(F)F)cc2)c1` (configuration not stated) reads inactive: 110%; that for `CCOP(C)(=S)SCC(=O)NC(C)C(=O)O` (configuration not stated), inactive: 107%; that for `CCOC(=O)c1ccc(NP(C)(=O)Oc2ccc(OC)cc2)cc1` (configuration not stated), inactive: 97.9%.
The result for `O=[N+]([O-])c1cc([N+](=O)[O-])c(O)c([N+](=O)[O-])c1.c1ccc(Oc2ccncc2)cc1` reads inactive: 101%; that for `CP(=O)(Nc1ccccn1)Oc1ccc(Cl)cc1` (configuration not stated), inactive: 95.1%.
The result for `O=[N+]([O-])c1cc([N+](=O)[O-])c(-n2nnc3ccccc32)c([N+](=O)[O-])c1` reads inactive: 98.3%; that for `O=[N+]([O-])c1cc([N+](=O)[O-])c(-c2cnn(-c3ccccc3)c2)c([N+](=O)[O-])c1`, inactive: 86%; that for `Cc1nc2ccc3ccccc3c2s1.O=[N+]([O-])c1cc([N+](=O)[O-])c(O)c([N+](=O)[O-])c1`, inactive: 97%.
For the molecule `O=[N+]([O-])c1cc([N+](=O)[O-])c(Nc2nnnn2CCO)c([N+](=O)[O-])c1`, the GFP response vs DMSO was inactive: 104%.
With `CC1=C2N=C(C=C3N=C(C(C)=C4[N-][C@@](C)([C@@H]5N=C1[C@](C)(CCC(=O)NC[C@@H](C)OP(=O)([O-])O[C@H]1[C@@H](O)[C@@H](n6cnc7cc(C)c(C)cc76)O[C@@H]1CO)[C@H]5CC(N)=O)[C@@](C)(CC(N)=O)[C@@H]4CCC(N)=O)[C@@](C)(CC(N)=O)[C@@H]3CCC(N)=O)C(C)(C)[C@@H]2CCC(N)=O.[C-]#N.[Co+3]`, the GFP response vs DMSO was inactive: 76.6%.
The figure for `CCOC(=O)C(CC)C1=NC(C)(C)Cc2ccccc21.O=[N+]([O-])c1cc([N+](=O)[O-])c(O)c([N+](=O)[O-])c1` (configuration not stated) is inactive: 100%; for `COc1ccccc1OP(C)(=O)Nc1c(C)cccc1C` (configuration not stated) it is inactive: 93%.
The result for `CN1CCCCC1COC(=O)C1(O)c2ccccc2CCc2ccccc21` (configuration not stated) reads inactive: 92.8%; that for `CP(=O)(Nc1ccc(SC(F)(F)F)cc1)Oc1ccccc1` (configuration not stated), inactive: 99.7%; that for `O=C(O)c1cccc(Nc2c([N+](=O)[O-])cc([N+](=O)[O-])cc2[N+](=O)[O-])c1`, inactive: 106%.
The result for `CC1=NCCc2c1[nH]c1ccccc21.O=[N+]([O-])c1cc([N+](=O)[O-])c(O)c([N+](=O)[O-])c1` reads inactive: 93.6%.
Turning to `COc1ccccc1OP(C)(=O)Nc1cccc(Br)c1` (configuration not stated), the GFP response vs DMSO was inactive: 114%.
The figure for `Cc1cc(C)cc(OP(C)(=O)Nc2ccc(C)cc2C)c1` (configuration not stated) is inactive: 96.4%.
For the molecule `CCOC(=O)c1ccc(NP(C)(=O)Oc2cc(C)cc(C)c2)cc1` (configuration not stated), the GFP response vs DMSO is inactive: 108%.
For `CP(=O)(Nc1cccc(Br)c1)Oc1ccccc1` (configuration not stated), the GFP response vs DMSO is inactive: 103%.
The figure for `Cc1cc(C)cc(OP(C)(=O)Nc2ccccn2)c1` (configuration not stated) is inactive: 99.2%; for `Cc1ccc(C)c(NP(C)(=O)Oc2ccccc2)c1` (configuration not stated) it is inactive: 104%; for `CC(C)c1ccc(OP(C)(=O)Nc2ccc(SC(F)(F)F)cc2)cc1` (configuration not stated) it is inactive: 100%.
The figure for `CP(=O)(Nc1ccccc1F)Oc1ccccc1` (configuration not stated) is inactive: 81.2%.
Take `O=C(OCCN1CCN(CCOCc2ccccc2)CC1)C(O)(c1ccccc1)c1ccccc1`: the GFP response vs DMSO was inactive: 100%.
Take `O=C(OC1CN2CCC1CC2)c1ccc([N+](=O)[O-])cc1` (configuration not stated): the GFP response vs DMSO was inactive: 89.8%.
The result for `COc1ccc2c(c1O)-c1c(O)c(OC)cc3c1[C@H](C2)[N+](C)(C)CC3.O=[N+]([O-])c1cc([N+](=O)[O-])c([O-])c([N+](=O)[O-])c1[O-]` reads inactive: 119%.
The figure for `COc1ccc(OP(C)(=O)Nc2ccc(SC(F)(F)F)cc2)cc1` (configuration not stated) is inactive: 95.1%; for `CCOC(=O)c1ccc(NP(C)(=O)Oc2ccc(F)cc2)cc1` (configuration not stated) it is inactive: 105%.
Take `CCN(CC)CCCOC(=O)C(O)(c1ccccc1)C1CCCCC1` (configuration not stated): the GFP response vs DMSO was inactive: 103%.
The result for `O=[N+]([O-])c1cc([N+](=O)[O-])c(OC2CCCCC2O)c([N+](=O)[O-])c1` (configuration not stated) reads inactive: 106%; that for `CCCCCOc1ccc(NP(C)(=O)Oc2ccc(Cl)cc2Cl)cc1` (configuration not stated), inactive: 102%; that for `CP(=O)(Nc1ccccc1)Oc1ccc(F)cc1` (configuration not stated), inactive: 102%.
The figure for `COc1ccc(OP(C)(=O)Nc2cccc(Br)c2)cc1` (configuration not stated) is inactive: 104%; for `COc1ccc(NP(C)(=O)Oc2ccccc2OC)cc1` (configuration not stated) it is inactive: 96.9%.
For `CN(C)CCOC(=O)C(O)(c1ccccc1)C1CCCCC1` (configuration not stated), the GFP response vs DMSO was inactive: 107%.
With `O=[N+]([O-])c1cc([N+](=O)[O-])c(NCC2CCS(=O)(=O)C2)c([N+](=O)[O-])c1` (configuration not stated), the GFP response vs DMSO was inactive: 103%.
For the molecule `O=[N+]([O-])c1ccc(OP2(=O)COCCO2)cc1` (configuration not stated), the GFP response vs DMSO was inactive: 95.5%.
On to `CP(=O)(Nc1ccc(SC(F)(F)F)cc1)Oc1ccc(F)cc1` (configuration not stated), for which the GFP response vs DMSO is inactive: 103%.
The result for `CCOP(C)(=S)SCC(=O)NC(C)(CC)C(=O)O` (configuration not stated) reads inactive: 103%; that for `CP(=O)(Nc1ccc2c(c1)OCCO2)Oc1ccccc1` (configuration not stated), inactive: 96.9%.
Regarding `Cc1ccccc1NP(C)(=O)Nc1ccccc1C`, the GFP response vs DMSO was inactive: 89.5%.
In the case of `CCN(CC)CC(O)COC(=O)C(O)(c1ccccc1)C1CCCCC1` (configuration not stated), the GFP response vs DMSO is inactive: 102%.
The figure for `COc1ccc(OP(C)(=O)Nc2ccc(Br)cc2)cc1` (configuration not stated) is inactive: 98.6%; for `CP(=O)(Oc1ccccc1)N1CCOC1=O` (configuration not stated) it is inactive: 104%.
The figure for `CCc1ccc(OP(C)(=O)Nc2cccnc2)cc1` (configuration not stated) is inactive: 105%; for `COc1ccccc1OP(C)(=O)Nc1c(C)n(C)n(-c2ccccc2)c1=O` (configuration not stated) it is inactive: 101%.
The figure for `O=C(OCCCN1CCCC1)C(O)(c1ccccc1)C1CCCCC1` (configuration not stated) is inactive: 104%.
Regarding `CP(=O)(Nc1ccc(Cl)cc1)Oc1ccc(F)cc1` (configuration not stated), the GFP response vs DMSO is inactive: 64.7%.
`CC(C)(C)c1ccc(OP(C)(=O)O)cc1`: the GFP response vs DMSO is inactive: 99.7%.
Turning to `COc1ccccc1OP(C)(=O)Nc1ccccc1Br` (configuration not stated), the GFP response vs DMSO is inactive: 97.6%.
The result for `CN(C)C(=O)c1c([N+](=O)[O-])cc([N+](=O)[O-])cc1[N+](=O)[O-]` reads inactive: 89.3%; that for `Nc1ccc2c(ccc3cccnc32)n1.O=[N+]([O-])c1cc([N+](=O)[O-])c(O)c([N+](=O)[O-])c1`, inactive: 103%.
The figure for `CP(=O)(OC12CC3CC(CC(C3)C1)C2)OC12CC3CC(CC(C3)C1)C2` is inactive: 110%.
`CCOC(=O)c1ccc(NP(C)(=O)Oc2ccc(Cl)cc2)cc1` (configuration not stated): the GFP response vs DMSO was inactive: 98%.
The result for `Cc1cc(C)cc(OP(C)(=O)Nc2cccc(C(F)(F)F)c2)c1` (configuration not stated) reads inactive: 96.3%.
As to `COc1ccc(OP(C)(=O)Nc2ccccc2Br)cc1` (configuration not stated), the GFP response vs DMSO was inactive: 86%.
For `COc1ccccc1OP(C)(=O)Nc1ccc(C)c(C)c1` (configuration not stated), the GFP response vs DMSO was inactive: 90.9%.
The figure for `Cc1nc2ccc3ccccc3c2o1.O=[N+]([O-])c1cc([N+](=O)[O-])c(O)c([N+](=O)[O-])c1` is inactive: 103%; for `CP(=O)(OCCOc1ccccc1)OCCOc1ccccc1` it is inactive: 99.8%; for `CP(=O)(Nc1ccc(Cl)cc1Cl)Oc1ccccc1` (configuration not stated) it is inactive: 85.4%.
As to `COc1ccccc1OP(C)(=O)Nc1ccc(Br)cc1` (configuration not stated), the GFP response vs DMSO was inactive: 100%.
For `CN(C)CCOC(=O)C(O)(c1ccccc1)C1CCCC1` (configuration not stated), the GFP response vs DMSO was inactive: 101%.
`COc1ccc(OP(C)(=O)Nc2ccccn2)cc1` (configuration not stated): the GFP response vs DMSO was inactive: 101%.
The result for `O=[N+]([O-])c1cc([N+](=O)[O-])c(Nc2ccccn2)c([N+](=O)[O-])c1` reads inactive: 77.9%; that for `Cc1c(NP(C)(=O)Oc2ccc(C(C)C)cc2)c(=O)n(-c2ccccc2)n1C` (configuration not stated), inactive: 102%; that for `CCc1ccc(OP(C)(=O)O)cc1`, inactive: 109%.
Regarding `CP(=O)(Nc1ccccn1)Oc1ccccc1` (configuration not stated), the GFP response vs DMSO is inactive: 99.5%.
